Data taken from ChEMBL document CHEMBL1125142, “Highly selective kappa-opioid analgesics. 3. Synthesis and structure-activity relationships of novel N-[2-(1-pyrrolidinyl)-4- or -5-substituted-cyclohexyl]arylacetamide derivatives” (1990).

Assay: In vitro binding selectivity for mu to kappa opioid receptors.

## CN(C(=O)Cc1cccc2occc12)[C@@H]1CC[C@]2(CCCO2)C[C@H]1N1CCCC1
  Ratio: 1520
